Source: PubChem
Compounds with a hit are over-represented: about 4.2% of the library has one in this group of screens.
ALR inh = blocks human ALR sulfhydryl oxidase activity | inhibition, % (test concentration not listed) | 3.8% of 290,000 active | AID 485317 | purified ALR, DTT oxidation, H2O2 HRP-luminol luminescence | P55789;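 active means mean and each replicate at 75% or more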;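 further: stock transfer was 7.5 nL into about 7.5 µL; 0% = neutral wells and 100% = wells with inactivated enzyme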
NALP1 yeast inh = NALP1 inflammasome inhibitors in reconstituted yeast, colorimetric, S. cerevisiae, triplicate retest; inhibition, % at 10 µM; 280,000 tested, 0.61% active; S. cerevisiae NALP1/ASC/caspase-1 growth, X-gal OD620, 72 h; AID 2071, 2009; in the data active means inhibition mostly above about 24%, no sharp cut-off; inactive means mostly below about 32%
MC4R ag barr = MC4R agonists recruiting beta-arrestin, primary screen, cell-based, luminescence, agonist arm of biased-ligand search. U2OS MC4R beta-arrestin complementation; percent of melanotan II response, DMSO zero. Melanocortin receptor 4 (Homo sapiens), P32245. activation, % at 8.9 µM. 360,000 tested, 0.98% active;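 active means activation above a per-plate cutoff, the mean activation of sample wells on that plate plus 3 SD, cut at about 8% in these data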
HDAC3 inh = HDAC3 deacetylase inhibitors, primary screen, biochemical, fluorescence, cell-free homogeneous; recombinant HDAC3, fluorogenic peptide/trypsin coupled; inhibition, % at 8.3 µM; 320,000 tested, 0.15% active; in the data active means inhibition above about 26%, passing the limit was not always enough
MC4R antagonist = MC4R antagonists of cAMP signaling, primary screen, cell-based, TR-FRET, antagonist arm of biased-ligand search. Melanocortin receptor 4 (Homo sapiens), P32245. MC4R-expressing cells, MTII-stimulated cAMP, LANCE TR-FRET. inhibition, % at 6.5 µM. 360,000 tested, 0.48% active;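 active means inhibition above its plate's cutoff, the mean of tested wells on that plate plus 3 SD, cut at about 29% in these data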
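system = U2OS cells with stable human MC4R expression | also added = Melanotan II challenge after compound preincubation | dosing = one concentration, 6.5 µM nominal | incubation = compound 30 min, challenge 1 h, detection 1 h | measured by = TR-FRET with Eu-cAMP and labeled anti-cAMP, 671 nm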
Yeast UUG start = yeast start codon fidelity modulation | S. cerevisiae UUG-firefly luciferase reporter, luminescence/redox ratio | activity score, % at 18.7 µM | hit rate 0.13% among 350,000 | AID 602363;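 active means replicate mean at a twofold rise or more, about +100% in these data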;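 further: firefly luciferase made from a UUG start codon reports start codon fidelity; reporter light over untreated wells divided by growth signal over untreated wells; some hits fall short of that in this replicate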
U2OS cAMP counter = nonselective cAMP signaling inhibitors, parental cells, counter-screen for MC4R biased antagonist project, cell-based, TR-FRET, U2OS, forskolin, triplicate; inhibition, % at 6.5 µM; shares compounds with MC4R antagonist; 1,600 tested, 26% active; LANCE TR-FRET;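 active means mean inhibition over triplicates above the low-control well mean plus 3 SD, set per campaign, cut at about 13% in these data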;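 further: signal is single emission at 671 nm which falls as cellular cAMP rises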
MC4R antag conf = MC4R cAMP antagonists, retest, confirmation, cell-based, TR-FRET; shares compounds with MC4R antagonist; MC4R-expressing cells, MTII-stimulated cAMP; inhibition, % at 6.5 µM; 1,600 tested, 27% active; AID 602195, 2012; in the data active means inhibition above about 29%
Hits are given with their value; 0 = inactive; - = no result; + = active, no number.

Chains of the proteins cited; added tags and fusions are not shown.
Melanocortin receptor 4 (Homo sapiens), P32245, UniProt P32245, whole entry, looked up: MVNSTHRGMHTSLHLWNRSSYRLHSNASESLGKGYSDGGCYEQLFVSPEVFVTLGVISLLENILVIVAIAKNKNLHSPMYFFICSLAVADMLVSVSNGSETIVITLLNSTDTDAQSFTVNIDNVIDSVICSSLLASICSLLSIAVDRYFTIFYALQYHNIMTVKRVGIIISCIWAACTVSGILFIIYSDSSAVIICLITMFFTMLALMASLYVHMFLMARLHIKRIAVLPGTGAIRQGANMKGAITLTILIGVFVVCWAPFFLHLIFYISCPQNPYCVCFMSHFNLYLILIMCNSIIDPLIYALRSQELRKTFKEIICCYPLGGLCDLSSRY

SMILES | ALR inh | NALP1 yeast inh | MC4R ag barr | HDAC3 inh | MC4R antagonist | Yeast UUG start | U2OS cAMP counter | MC4R antag conf
O=C(CSc1n[nH]c(-c2ccccc2O)n1)N1CCOCC1 | 0 | 0 | 0 | 0 | 30 | - | 0 | 0
COC(=O)c1c(NC(=O)/C=C/C(=O)O)sc(C)c1-c1ccc(C(C)C)cc1 | 0 | 0 | 0 | 0 | 33 | - | 0 | 0
COC(=O)c1sc(-c2ccc(Cl)cc2)cc1NC(=O)/C=C/C(=O)O | 84 | - | 0 | 0 | 47 | 0 | 13 | 0
CC(C)=C1C2CCC1C(C(=O)Nc1sc(C)c(-c3ccc(C(C)C)cc3)c1C(N)=O)C2C(=O)O (stereo not drawn) | 0 | 0 | 0 | 0 | 0 | 0 | - | -
O=C(C[C@H]1C[C@H]2c3cc(NC(=O)NC4CCCCC4)ccc3O[C@H]2[C@H](CO)O1)NCc1ccccc1 | - | - | - | - | - | 0 | - | -
C=C(C)CN(CC)C(=O)CCc1nnc(CCCc2ccccc2)o1 | 0 | 0 | 0 | 0 | 31 | - | 0 | 0
O=C(NCC(c1cccs1)N1CCOCC1)c1ccc(Cl)c(S(=O)(=O)N2CCOCC2)c1 (stereo not drawn) | 0 | 0 | 0 | - | 0 | - | - | -
O=C(NCC(c1cccs1)N1CCOCC1)c1ccc(Cl)c([N+](=O)[O-])c1 (stereo not drawn) | 0 | 0 | 0 | 0 | 41 | 0 | 16 | 47
O=C(NCC(c1cccs1)N1CCOCC1)c1ccccc1NS(=O)(=O)c1ccc(Cl)c([N+](=O)[O-])c1 (stereo not drawn) | 0 | 0 | 0 | 0 | 29 | - | 0 | 0
CCCNC(=O)N1C[C@@H](O)COC[C@H]2O[C@H](CC(=O)N3CCOCC3)CC[C@@H]21 | - | - | - | - | - | 0 | - | -
C[C@H](O)C#Cc1cnc2c(c1)C(=O)N([C@H](C)CO)C[C@H](C)[C@H](CN(C)C(=O)Nc1ccc(F)cc1)O2 | - | - | - | - | - | 0 | - | -
O=c1sc(N2CCN(c3ccc(F)cc3)CC2)nc2ccsc12 | - | 0 | 0 | 0 | + | 0 | 0 | 0
O=C(O)c1cnn(-c2nc(-c3cccc([N+](=O)[O-])c3)cs2)c1C(F)(F)F | - | 0 | 0 | 0 | 33 | 0 | 0 | 0
O=C(O)c1cnn(-c2nc(-c3ccc(Cl)c(Cl)c3)cs2)c1C(F)(F)F | 0 | 0 | 0 | 0 | 52 | 0 | 0 | 0
COCC(=O)N1CC[C@@H]2[C@H]1c1cc(C#Cc3ccccc3)ccc1N[C@@H]2CO | - | - | - | - | - | 0 | - | -
COc1ccccc1-c1cc2nc(-c3ccccc3)cc(N3CCN(C(=O)c4ccco4)CC3)n2n1 | - | - | 0 | - | 29 | 0 | 0 | 0
O=C(c1ccoc1)N1CCN(c2cc(-c3ccccc3)nc3cc(-c4ccccc4)nn23)CC1 | - | - | 0 | - | 0 | 0 | - | -
COc1ccccc1-c1cc2nc(-c3ccccc3)cc(N3CCN(C(=O)c4ccoc4)CC3)n2n1 | - | - | 0 | - | 30 | 0 | 0 | 0
CNC[C@@H]1Oc2ccc(NC(=O)CCN3CCOCC3)cc2CC(=O)N([C@H](C)CO)C[C@@H]1C | - | - | - | - | - | 0 | - | -
O=C(c1ccccc1)N1C[C@@H]2[C@H](c3ccccc31)[C@H](CO)N2C(=O)CN1CCOCC1 | - | - | - | - | - | 0 | - | -
C[C@@H]1CCCCO[C@H](CN(C)Cc2ccncc2)[C@@H](C)CN([C@@H](C)CO)C(=O)c2cc(NC(=O)CCC(F)(F)F)ccc2O1 | - | - | - | - | - | 0 | - | -
Cc1ccccc1N(CC(=O)NC1CCCCC1)C(=O)CNC(=O)c1cccs1 | 0 | 0 | 0 | 0 | 30 | 0 | 0 | 0
O=C(CN(C(=O)CNC(=O)c1cccs1)c1ccccc1F)NC1CCCCC1 | 0 | 0 | 0 | 0 | 0 | 0 | - | -
COc1cccc(C(=O)c2c[nH]c(C(=O)NCc3cccnc3)c2)c1 | 0 | 0 | 0 | 0 | 30 | - | 0 | 0
